In the Kinase Knowledgebase extract (Sharma et al. 2016) one finds IC50 data, which are given here for one compound.

Sequences of proteins named here, by UniProt entry; tags and fusion partners are left off. A change or cut given only in a name is not applied to a line headed by its entry.
UniProt O00329: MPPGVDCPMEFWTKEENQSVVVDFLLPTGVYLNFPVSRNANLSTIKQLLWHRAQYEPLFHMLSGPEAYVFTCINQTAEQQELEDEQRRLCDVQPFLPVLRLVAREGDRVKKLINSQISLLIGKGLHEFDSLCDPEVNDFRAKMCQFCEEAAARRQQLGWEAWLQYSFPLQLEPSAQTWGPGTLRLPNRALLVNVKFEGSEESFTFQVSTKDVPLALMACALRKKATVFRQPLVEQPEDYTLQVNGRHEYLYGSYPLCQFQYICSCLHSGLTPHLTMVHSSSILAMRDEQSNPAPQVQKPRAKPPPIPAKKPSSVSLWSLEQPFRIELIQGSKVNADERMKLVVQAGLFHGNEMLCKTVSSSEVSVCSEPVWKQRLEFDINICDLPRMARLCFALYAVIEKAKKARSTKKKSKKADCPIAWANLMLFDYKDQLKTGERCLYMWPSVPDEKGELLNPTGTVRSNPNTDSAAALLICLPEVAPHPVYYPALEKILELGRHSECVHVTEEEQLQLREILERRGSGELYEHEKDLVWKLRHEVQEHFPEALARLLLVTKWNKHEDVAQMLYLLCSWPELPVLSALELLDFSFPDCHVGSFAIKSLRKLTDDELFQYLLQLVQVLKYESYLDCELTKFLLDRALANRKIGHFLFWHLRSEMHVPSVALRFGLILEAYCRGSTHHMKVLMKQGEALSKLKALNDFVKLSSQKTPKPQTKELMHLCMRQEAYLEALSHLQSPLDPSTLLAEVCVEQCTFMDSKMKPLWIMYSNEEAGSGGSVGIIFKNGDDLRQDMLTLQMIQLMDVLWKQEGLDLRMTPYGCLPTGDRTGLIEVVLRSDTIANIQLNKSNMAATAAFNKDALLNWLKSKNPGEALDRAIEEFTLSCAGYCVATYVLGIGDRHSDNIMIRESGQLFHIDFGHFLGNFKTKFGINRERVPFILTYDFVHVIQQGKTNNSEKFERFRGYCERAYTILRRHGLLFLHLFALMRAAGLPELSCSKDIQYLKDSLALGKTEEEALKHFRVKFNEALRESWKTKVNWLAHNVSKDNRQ

The target in this test is PIK3CD (Human) (UniProt O00329). The experiment in a line: Inhibition of PIK3CD Kinase Activity in Pfeiffer Cells.

For `Cc1csc2nc(C(C)Nc3ncnc4[nH]cnc34)c(-c3cccc(F)c3)c(=O)n12` (stereo unspecified), the IC50 was < 50 nM.

In general, IC50 refers to the midpoint of a concentration-inhibition curve. Read a low IC50 as higher potency.
